{"sequences": {"note": "By UniProt entry, the sequences of proteins in these tests, tags left out.", "UniProt P10635, whole entry": "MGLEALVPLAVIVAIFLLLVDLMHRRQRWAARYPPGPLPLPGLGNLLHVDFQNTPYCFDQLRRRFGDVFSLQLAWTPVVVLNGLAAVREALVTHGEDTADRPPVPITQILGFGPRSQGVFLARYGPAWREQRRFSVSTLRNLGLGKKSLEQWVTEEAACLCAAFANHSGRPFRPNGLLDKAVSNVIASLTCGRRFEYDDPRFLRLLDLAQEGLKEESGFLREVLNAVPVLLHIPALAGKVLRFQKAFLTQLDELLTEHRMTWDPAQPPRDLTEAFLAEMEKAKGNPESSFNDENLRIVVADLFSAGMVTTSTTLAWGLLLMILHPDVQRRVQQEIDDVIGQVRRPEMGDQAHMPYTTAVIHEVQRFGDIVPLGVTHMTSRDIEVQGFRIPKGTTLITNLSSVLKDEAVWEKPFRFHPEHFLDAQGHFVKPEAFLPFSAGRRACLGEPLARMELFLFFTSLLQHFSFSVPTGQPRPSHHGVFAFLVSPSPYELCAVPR"}, "source": "patent US6395727B1", "about": "“Method of treating Bulimia Nervosa and related eating disorders by administration of atypical antipsychotic medications” (The Cincinnati Children's Hospital Research Foundation, priority 1999, dated 2002)", "origin": "cited, not measured here", "target": "cytochrome P450IID6 (Homo sapiens, UniProt P10635)", "conditions": "by cytochrome P450IID6; cited from earlier work"}
{"smiles": "Cc1nc2n(c(=O)c1CCN1CCC(c3noc4cc(F)ccc34)CC1)CCCC2", "note": "[risperidone, 3-[2-[4-(6-fluoro-1,2-benzisoxazol-3-yl)-1-piperidinyl]ethyl]-6,7,8,9-tetrahydro-2-methyl-4H-pyrido[1,2-a]pyrimidin-4-one]", "values": [{"measurement": "metabolism in the liver to the principle metabolite 9-hydroxyrisperidone", "value": "extensively metabolized"}]}
